Results reported in US20220305093A1, “NK-LYSIN PEPTIDE COMPOSITIONS AND METHODS FOR THEIR USE AS ANTIMICROBIAL/ANTIVIRAL AGENTS” (priority 2021, published 2022).

System: Salmonella typhimurium (ATCC 14028)
Test: Combination of NK-lysin peptide and human IL-2, micro-dilution growth inhibition
Type: cell-based
Conditions: over 24 hours; IL-2 2 ng/ml, peptide 1×MIC
Description: The standard micro-dilution technique was used to measure the least-inhibitory concentration of NK-lysin peptide and Human IL-2 individually. This method was also used to measure the least-inhibitory concentration of the NK-lysin peptide mixed with IL-2. The 1×MIC of NK-lysin peptide against each bacterial strain was mixed with IL-2 (2 ng/ml).

## IL-2: recombinant human interleukin-2 from Sigma Aldrich
  antibacterial activity: maintained over the 24 hours
